Laboratory results from patent US7211566B2 (Universite De Sherbrooke, priority 2003, dated 2007).

Sequences of proteins named here, by UniProt entry; tags and fusion partners are left off.
UniProt Q28642, whole entry: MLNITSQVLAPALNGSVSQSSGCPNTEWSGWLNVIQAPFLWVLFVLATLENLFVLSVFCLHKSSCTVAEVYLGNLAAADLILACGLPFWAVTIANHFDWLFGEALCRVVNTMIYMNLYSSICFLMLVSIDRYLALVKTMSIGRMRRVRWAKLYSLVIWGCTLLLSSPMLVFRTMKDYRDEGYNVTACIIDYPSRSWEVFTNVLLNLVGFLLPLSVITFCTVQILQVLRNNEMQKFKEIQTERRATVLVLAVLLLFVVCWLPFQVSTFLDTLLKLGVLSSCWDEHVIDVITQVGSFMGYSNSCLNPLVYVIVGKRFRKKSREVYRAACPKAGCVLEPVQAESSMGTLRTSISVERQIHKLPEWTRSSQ

What was measured:
BKB2 receptor = target: T1, BKB2 receptor (Oryctolagus cuniculus, UniProt Q28642); test: Isolated rabbit jugular vein (rbJV) organ bath, antagonist potency pA2; assay type: cell-based
T1 construct: The rabbit jugular vein (a pure BKB2 receptor system); from tissue; host or cells: isolated rabbit jugular vein (rbJV)
Procedure: (§1) Selected antagonists were tested for activities in three isolated organs: (1) the rabbit aorta (rbA), (2) the human umbilical vein (hUV) and (3) the rabbit jugular vein (rbJV).
(§2) All details regarding the procurements of human umbilical cords and rabbit vessels as well as, the procedures for preparing the isolated organs and the experimental protocols are described in these respective publications: rbA (Rioux et al. 1973, Can J Physiol Pharmacol 51, 114–121); hUV (Gobeil et al. 1996, Br J Pharmacol 118, 289–294), and rbJV (Gaudreau et al. 1981, Can J Physiol Pharmacol 59, 371–379).
The rabbit jugular vein (a pure BKB2 receptor system) was used to exclude any action of the new compounds on the BKB2 receptor and thus establish their selectivity. All tissues were treated with captopril (1 μM) to prevent the degradation of the peptidic agonists.
Repeated applications of a single and double concentration of BK (on rbJV,) or of desArg^9BK (rbA and hUV) were made in the absence and in presence of the various peptides to evaluate their apparent affinities as antagonists, in terms of pA2 (-log10 of the molar concentration of antagonist that reduces the effect of a double concentration of agonist to that of a single one) (Schild 1947, Br J Pharmacol 2, 189–206). […]

BKB1 receptor = target: T2, BKB1 receptor (Oryctolagus cuniculus, UniProt P48748); test: Isolated rabbit aorta (rbA) organ bath, antagonist potency pA2; assay type: cell-based
T2 construct: The rabbit aorta without endothelium (which contains only the BKB1 receptor); from tissue; host or cells: isolated rabbit aorta (rbA) without endothelium
T2 sequence (P48748 1-352): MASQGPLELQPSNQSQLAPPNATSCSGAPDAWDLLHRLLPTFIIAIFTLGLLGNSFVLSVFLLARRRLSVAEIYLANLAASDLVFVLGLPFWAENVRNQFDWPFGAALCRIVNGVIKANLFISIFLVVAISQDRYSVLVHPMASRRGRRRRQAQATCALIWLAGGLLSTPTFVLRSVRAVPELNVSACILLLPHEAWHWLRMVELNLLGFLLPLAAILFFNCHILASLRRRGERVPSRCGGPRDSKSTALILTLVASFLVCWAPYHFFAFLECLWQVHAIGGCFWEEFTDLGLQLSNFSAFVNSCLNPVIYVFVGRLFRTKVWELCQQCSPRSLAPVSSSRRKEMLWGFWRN
Procedure: as §1, §2
The rabbit aorta without endothelium (which contains only the BKB1 receptor) was used to determine the antagonistic activities of each compound.
The rabbit jugular vein (a pure BKB2 receptor system) was used to exclude any action of the new compounds on the BKB2 receptor and thus establish their selectivity. All tissues were treated with captopril (1 μM) to prevent the degradation of the peptidic agonists. […]

Q: Which Kb (BKB2 receptor) does the source give for `CC(C)C[C@H](NC(=O)[C@@H]1CCCN1C(=O)[C@H](CO)NC(=O)[C@H](Cc1ccccc1)NC(=O)CNC(=O)[C@@H]1CCCN1C(=O)[C@@H]1CCCN1C(=O)[C@H](CCCN=C(N)N)NC(=O)[C@@H](N)CCCCN)C(=O)O` [Lys-[Leu^8]desArg^9-BK, Lys-[Leu^8] desArg^9BK] here?
A: > 1000 nM

Q: What about the Kb (BKB1 receptor) of the same compound?
A: 5.37 nM
